The nature of the data set: Orientational pharmacokinetics, serum concentrations by HPLC. To be noted: intraperitoneally at the MTD, female NMRI mice.

On to “8-methylensulfamide-8″-methoxy-3,3′-commo-bis(1,2-dicarba-3-cobalta(III)-closo-dodecabor)ate (1-) [CB-4]”, for which the “serum concentrations overcoming carbonic anhydrase IX in vitro IC50 (calculated from the cmax values)” value was 120 ×.
Regarding “8-butyloxysulfamide-3,3′-commo-bis(decahydro-1,2-dicarba-3-cobalta(III)-closo-dodekabor)ate (1-) [CB-16]”, the “serum concentrations overcoming carbonic anhydrase IX in vitro IC50 (calculated from the cmax values)” value was 12 ×.

The values are drawn from patent publication US9290529B2, “Carbonic anhydrase inhibitors and method of their production” (USTAV ORGANICKE CHEMIE A BIOCHEMIE AKADEMIE VED CESKE …, priority 2011, dated 2016).
